In patent US7582618B2 (priority 2002, dated 2009):

How the values were obtained:
[1] = tested on: intracellular phosphorylation of mCyd to mCyd-TP; test: Substrate competition for mCyd phosphorylation
human DNA polymerase α = molecular target: T1, human DNA polymerase α (Homo sapiens, UniProt P09884); test: Inhibition of human DNA polymerases; assay type: biochemical
T1 sequence (P09884 1-1462): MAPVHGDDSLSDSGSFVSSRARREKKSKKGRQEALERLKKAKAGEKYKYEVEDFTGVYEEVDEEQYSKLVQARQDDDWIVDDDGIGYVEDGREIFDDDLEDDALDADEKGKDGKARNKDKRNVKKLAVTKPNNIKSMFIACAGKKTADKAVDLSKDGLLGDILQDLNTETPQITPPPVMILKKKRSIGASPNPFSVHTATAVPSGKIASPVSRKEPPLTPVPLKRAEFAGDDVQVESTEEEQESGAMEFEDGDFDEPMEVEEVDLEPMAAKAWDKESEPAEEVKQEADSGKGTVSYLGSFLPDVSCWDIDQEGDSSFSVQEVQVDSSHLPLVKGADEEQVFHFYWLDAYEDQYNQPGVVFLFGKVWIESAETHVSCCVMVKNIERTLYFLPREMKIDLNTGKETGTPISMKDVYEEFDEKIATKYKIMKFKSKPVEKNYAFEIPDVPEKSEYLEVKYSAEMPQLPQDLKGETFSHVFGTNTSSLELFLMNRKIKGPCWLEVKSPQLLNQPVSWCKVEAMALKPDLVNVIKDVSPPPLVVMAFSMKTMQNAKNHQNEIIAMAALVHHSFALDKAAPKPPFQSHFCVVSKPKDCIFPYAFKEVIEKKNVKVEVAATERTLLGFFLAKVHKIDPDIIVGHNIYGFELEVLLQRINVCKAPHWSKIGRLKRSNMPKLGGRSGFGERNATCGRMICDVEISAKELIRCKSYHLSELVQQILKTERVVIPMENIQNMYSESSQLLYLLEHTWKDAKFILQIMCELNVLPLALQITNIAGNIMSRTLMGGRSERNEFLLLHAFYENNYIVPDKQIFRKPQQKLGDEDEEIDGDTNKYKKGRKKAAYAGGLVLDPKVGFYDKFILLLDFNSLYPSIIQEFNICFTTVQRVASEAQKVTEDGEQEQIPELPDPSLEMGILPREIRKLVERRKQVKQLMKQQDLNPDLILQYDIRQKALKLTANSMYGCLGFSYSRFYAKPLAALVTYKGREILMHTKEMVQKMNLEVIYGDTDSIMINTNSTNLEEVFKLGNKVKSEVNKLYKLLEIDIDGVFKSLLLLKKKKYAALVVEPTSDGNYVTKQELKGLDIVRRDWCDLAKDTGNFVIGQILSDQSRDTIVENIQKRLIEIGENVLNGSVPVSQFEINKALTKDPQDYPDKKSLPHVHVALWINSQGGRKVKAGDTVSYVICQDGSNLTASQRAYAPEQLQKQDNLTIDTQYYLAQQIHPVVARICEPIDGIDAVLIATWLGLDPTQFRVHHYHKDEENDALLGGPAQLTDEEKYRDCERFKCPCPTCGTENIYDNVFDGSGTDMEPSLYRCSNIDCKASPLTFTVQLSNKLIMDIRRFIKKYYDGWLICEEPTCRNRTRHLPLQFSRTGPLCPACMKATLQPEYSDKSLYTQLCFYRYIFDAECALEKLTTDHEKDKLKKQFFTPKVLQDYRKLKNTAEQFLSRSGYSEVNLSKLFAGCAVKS

human DNA polymerase β = human DNA polymerase β (Homo sapiens, UniProt P06746); test: Inhibition of human DNA polymerases; assay type: biochemical
human DNA polymerase γ = molecular target: T2, human DNA polymerase γ (Homo sapiens, UniProt P54098); test: biochemical
T2 sequence (P54098 1-1239): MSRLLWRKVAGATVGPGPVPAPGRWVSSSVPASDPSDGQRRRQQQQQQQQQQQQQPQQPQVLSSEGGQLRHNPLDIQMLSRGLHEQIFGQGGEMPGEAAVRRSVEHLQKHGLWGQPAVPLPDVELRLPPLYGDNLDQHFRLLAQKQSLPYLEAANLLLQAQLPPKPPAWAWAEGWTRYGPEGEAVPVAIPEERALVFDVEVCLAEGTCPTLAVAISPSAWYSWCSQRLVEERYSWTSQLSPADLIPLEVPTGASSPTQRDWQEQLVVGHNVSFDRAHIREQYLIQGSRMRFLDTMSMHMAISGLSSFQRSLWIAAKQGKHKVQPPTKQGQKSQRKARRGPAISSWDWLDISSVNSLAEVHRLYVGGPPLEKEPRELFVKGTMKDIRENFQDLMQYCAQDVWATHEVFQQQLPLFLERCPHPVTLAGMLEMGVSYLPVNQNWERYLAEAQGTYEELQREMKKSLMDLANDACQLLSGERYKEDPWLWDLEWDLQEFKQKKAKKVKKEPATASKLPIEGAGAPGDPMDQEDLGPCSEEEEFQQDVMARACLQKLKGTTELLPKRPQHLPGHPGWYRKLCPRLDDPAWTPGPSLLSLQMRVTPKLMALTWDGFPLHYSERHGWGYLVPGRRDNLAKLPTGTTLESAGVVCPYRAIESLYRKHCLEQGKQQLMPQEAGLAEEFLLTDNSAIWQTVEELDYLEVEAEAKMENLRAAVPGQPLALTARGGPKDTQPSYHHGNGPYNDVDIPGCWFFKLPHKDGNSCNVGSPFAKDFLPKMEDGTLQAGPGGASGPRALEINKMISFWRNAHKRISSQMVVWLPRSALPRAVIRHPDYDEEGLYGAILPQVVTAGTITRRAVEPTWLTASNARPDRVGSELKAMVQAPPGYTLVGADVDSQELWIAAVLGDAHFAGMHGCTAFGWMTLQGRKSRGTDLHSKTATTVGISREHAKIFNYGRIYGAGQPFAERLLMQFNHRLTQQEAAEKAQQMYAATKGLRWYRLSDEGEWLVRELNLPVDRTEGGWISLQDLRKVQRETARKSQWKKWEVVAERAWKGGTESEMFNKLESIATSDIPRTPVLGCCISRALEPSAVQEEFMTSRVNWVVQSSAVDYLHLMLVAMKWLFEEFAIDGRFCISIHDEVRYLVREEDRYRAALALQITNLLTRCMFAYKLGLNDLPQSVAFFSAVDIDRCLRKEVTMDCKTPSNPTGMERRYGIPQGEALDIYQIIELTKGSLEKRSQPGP

[2] = Phosphorylation assay of nucleoside to active triphosphate; conditions: human, HepG2 cells
[3] = as above; conditions: bovine, MDBK kidney cells
[4] = tested on: BVDV (strain NADL) in MDBK cells; test: BVDV cell protection assay (CPA); assay type: cell-based; conditions: Bovine viral diarrhea virus isolates and strains, 96 h, BVDV NADL cp, de novo infection, 4 days
HCV [5] = conditions: ribavirin alone; Davis 2000; cited from earlier work
[6] = Cytotoxicity (cell proliferation) assay; conditions: human, Huh7 hepatoma cells
[7] = Cytotoxicity (cell proliferation) assay; conditions: human, HepG2 hepatoma cells, CC50, HepG2, rapid cell division
[8] = Cytotoxicity on uninfected cells in parallel to the CPA; conditions: bovine, uninfected MDBK kidney cells
[9] = Cellular DNA or RNA synthesis ([3H]-thymidine / [3H]-uridine incorporation); conditions: human, HepG2 cells
HepG2 cells = test: Mitochondrial DNA content (mtDNA/nuclear DNA); assay type: cell-based, human; conditions: HepG2, 14 days
BVDV [10] = test: Exploratory cell culture antiviral studies of mUrd; assay type: cell-based, bovine viral diarrhea virus
[11] = tested on: wide spectrum of other viruses; test: Exploratory cell culture antiviral studies of mUrd; assay type: cell-based
[12] = Exposure of chimpanzees to mCyd (serum HPLC); conditions: chimpanzee, oral val-mCyd; lower limit of quantification 0.4 μM (100 ng/mL)
BVDV [13] = test: Antiviral test (Table 8b); assay type: cell-based; conditions: Bovine viral diarrhea virus isolates and strains; table note: BHK for Bovine Viral Diarrhea Virus
DENV 2 = test: Antiviral test (Table 8b); assay type: cell-based; conditions: Dengue virus
CVB-2 = test: Antiviral test (Tables 8b, 8c); assay type: cell-based, Coxsackievirus B-2; conditions: Coxsackievirus
REO-1 = test: Antiviral test (Tables 8b, 8c); assay type: cell-based, double-stranded RNA viruses
[14] = In vitro stability in human plasma; conditions: 37° C., after 10 hours
HCV [15] = test: Clinical antiviral activity, serum HCV RNA (Amplicor HCV Monitor assay v2.0)
[16] = tested on: genotype 1 HCV (serum HCV RNA); conditions: for reduction of mean HCV RNA level: seven days

Structure (SMILES): O=c1ccn([C@@H]2O[C@H](CO)[C@@H](O)[C@H]2O)c(=O)[nH]1 [uridine]
- EC50 ([1]; read-out: EC50 for reduction of intracellular phosphorylation of mCyd to mCyd-TP): 20.9 ± 7.1 µM

Structure (SMILES): C[C@@]1(O)[C@H](O)[C@@H](COP(=O)(O)OP(=O)(O)OP(=O)(O)O)O[C@H]1n1ccc(N)nc1=O [mCyd-TP, 2′-C-methyl-cytidine-5′-triphosphate]
- IC50 (human DNA polymerase α): 880 to 1000 µM and > 1000 µM
- IC50 (human DNA polymerase β): 880 to 1000 µM
- IC50 (human DNA polymerase γ): 880 to 1000 µM
- half-life at 10 μM [2]: 13.9 ± 2.2 h
- half-life at 10 μM [3]: 7.6 ± 0.6 h

Structure (SMILES): NC(=O)c1ncn([C@@H]2O[C@H](CO)[C@@H](O)[C@H]2O)n1 [ribavirin, 1-β-D-ribofuranosyl-1-1,2,4-triazole-3-carboxamide, reference compound]
- EC50 [4]: > 4.3 µM
- effect on serum levels of HCV-RNA (HCV [5]): does not lower serum levels of HCV-RNA
- CC50 at 4 days [6]: 35 to 36 µM
- CC50 at 4 days [7]: 35 to 36 µM
- CC50 at 4 days [8]: 4.3 ± 0.6 µM
- CC50 ([9]; probe [3H]-thymidine, CC50 DNA ([3H]Thymidine), 50% reduction of thymidine incorporation into cellular DNA): 3.16 µM
- CC50 ([9]; probe [3H]-uridine, CC50 RNA ([3H]Uridine), 50% reduction of uridine incorporation into cellular RNA): 6.85 µM

Structure (SMILES): Nc1ccn([C@H]2CC[C@@H](CO)O2)c(=O)n1 [ddC, zalcitabine, reference compound]
- reduction in mitochondrial DNA content (HepG2 cells): 80%
- IC50 (human DNA polymerase β): 4.8 µM
- IC50 (human DNA polymerase γ): 2.7 µM

Structure (SMILES): C[C@@]1(O)[C@H](O)[C@@H](CO)O[C@H]1n1ccc(=O)[nH]c1=O [mUrd, β-D-2′-C-methyl-ribofuranosyl uridine]
- potency against BVDV relative to mCyd (less potent) (BVDV [10]): about 10 fold
- antiviral activity against a wide spectrum of other viruses [11]: essentially no antiviral activity
- mUrd in sera samples [12]: No mUrd was detected

Structure (SMILES): CC(C)C(N)C(=O)OC1[C@@H](CO)O[C@@H](n2ccc(N)nc2=O)C1(C)O (stereo in doubt) [val-mCyd, 2-Amino-3-methyl-butyric acid 5-(4-amino-2-oxo-2H-pyrimidine-1-yl)-4-hydroxy-2 hydroxy-methyl-4-methyl-tetrahydro-furan-3-yl ester (dihydrochloride salt)]
- EC50 (BVDV [13]): 5.8 µM
- EC50 (DENV 2): > 100 µM
- EC50 (CVB-2): 12 µM
- EC50 (REO-1): 22 µM
- input val-mCyd remaining [14]: 2%
- Change From Baseline (Day 1) in Log10 HCV RNA, Median (HCV [15]; 50 mg/day for 15 days, Day 2): −0.07 Log10
- Change From Baseline (Day 1) in Log10 HCV RNA, Median (HCV [15]; 50 mg/day for 15 days, Day 8): −0.06 Log10
- Change From Baseline (Day 1) in Log10 HCV RNA, Median (HCV [15]; 50 mg/day for 15 days, Day 15): −0.10 Log10
- Change From Baseline (Day 1) in Log10 HCV RNA, Mean (HCV [15]; 50 mg/day for 15 days, Day 22): −0.09 Log10
- Change From Baseline (Day 1) in Log10 HCV RNA, Median (HCV [15]; 50 mg/day for 15 days, Day 22): −0.09 Log10
- Change From Baseline (Day 1) in Log10 HCV RNA, Mean (HCV [15]; 50 mg/day for 15 days, Day 29): −0.01 Log10
- Change From Baseline (Day 1) in Log10 HCV RNA, Median (HCV [15]; 50 mg/day for 15 days, Day 29): −0.04 Log10
- HCV RNA in Log10 Scale, Mean (HCV [15]; 50 mg/day for 15 days, Day −1): 6.72 Log10
- Change From Baseline (Day 1) in Log10 HCV RNA, Median (HCV [15]; 100 mg/day for 15 days, Day 8): −0.20 Log10
- reduction of mean HCV RNA level ([16]; 8.3 mg/kg/day): 0.83 log10 copies/ml
- mean reduction from baseline HCV viral load ([16]; 16.6 mg/kg/day QD PO, day 7): 1.05 log10
- reduction of mean HCV RNA level ([16]; 16.6 mg/kg/day): 1.05 log10 copies/ml

Structure (SMILES): Nc1ccn([C@H]2C[C@H](O)[C@@H](CO)O2)c(=O)n1 [deoxycytidine]
- EC50 ([1]; read-out: EC50 for reduction of formation of mCyd-TP): > 100 µM

“And” between values parts separate entries of the source, which are not always exact repeats. Identical values can stand only once. Counter-ions that a name gives are not always drawn. Like-named read-outs stand apart in the source and are kept apart here.
